{
  "source": "PubChem BioAssay AID651702",
  "about": "(NMMLSC, 2012)",
  "note": "The entries are a selection whose mix differs from that of the whole data set. The source made the active and inactive calls.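 How the source made its calls: active means inhibition above about 55% (limit read from the data); inconclusive means no clear call, values can overlap the other calls; inactive means the rest.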",
  "data": [
    {"assay": "LAMP-1 surface exposure blockers, TALL-104 cells – cell-based, flow cytometry, MLPCN library, primary screen (AID 651702)", "conditions": "TALL-104 LAMP-1 surface exposure, at 10 µM, active compounds read high, cells stimulated with thapsigargin and PMA", "values": [
      {"smiles": "CCN1CCC(Nc2ccc(Cl)cc2)CC1", "inhibition": "inactive: 4.9%"},
      {"smiles": "O=C(NCC1(N2CCCCC2)CCCCC1)c1cccc(C(F)(F)F)c1", "inhibition": "inactive: 0.1%"},
      {"smiles": "CN1CCN(CCOC(=O)C(O)(c2ccccc2)c2ccccc2)CC1", "inhibition": "inactive: 2.2%"},
      {"smiles": "COc1ccc(NC2CCN(C(=O)OC(C)(C)C)CC2)cc1", "inhibition": "inactive: 0.2%"},
      {"smiles": "CC(C)c1ccc(C(=O)NCC2(N3CCOCC3)CCCCC2)cc1", "inhibition": "inactive: -7.7%"},
      {"smiles": "CCCCn1nnnc1C(c1cccc2ccccc12)N1CCC(n2c(=O)[nH]c3ccccc32)CC1", "note": "(stereo unspecified)", "inhibition": "inactive: 6.9%"},
      {"smiles": "COc1cc(C(=O)NCC2(N3CCCCC3)CCCCC2)ccc1OC(F)F", "inhibition": "inactive: -13.4%"},
      {"smiles": "O=C(NCC1(N2CCOCC2)CCCCC1)c1cc(=O)[nH]c2ccccc12", "inhibition": "inactive: 0.5%"},
      {"smiles": "CN(C)c1cccc(C(=O)NCC2(N3CCCCC3)CCCCC2)c1", "inhibition": "inactive: -0.3%"},
      {"smiles": "COc1ccc(CN(CCCl)CCCl)cc1Cl", "inhibition": "inactive: -0.8%"},
      {"smiles": "CC(C)c1ccc(NC2CCN(C(=O)OC(C)(C)C)CC2)cc1", "inhibition": "inactive: -7.8%"},
      {"smiles": "CCCCn1nnnc1C(c1ccccc1OC(F)(F)F)N1CCC(n2c(=O)[nH]c3ccccc32)CC1", "note": "(stereo unspecified)", "inhibition": "inactive: -6.7%"},
      {"smiles": "CCCCn1nnnc1C(c1ccnc2ccccc12)N1CCC(n2c(=O)[nH]c3ccccc32)CC1", "note": "(stereo unspecified)", "inhibition": "inactive: 4.3%"},
      {"smiles": "CCC(c1nnnn1C(C)(C)C)N1CCC(n2c(=O)[nH]c3ccccc32)CC1", "note": "(stereo unspecified)", "inhibition": "inactive: 3.5%"},
      {"smiles": "O=C(NCC1(N2CCOCC2)CCCCC1)c1cc(F)c(F)cc1Cl", "inhibition": "inactive: -1.8%"},
      {"smiles": "COc1cc(OC)c(C(=O)NCC2(N(C)C)CCCCC2)cc1OC", "inhibition": "inactive: 0%"},
      {"smiles": "CN1CCC(Nc2cccc(F)c2)CC1", "inhibition": "inactive: -2.4%"},
      {"smiles": "O=C(NCC1(N2CCCCC2)CCCCC1)c1cncc(Br)c1", "inhibition": "inactive: 5.1%"},
      {"smiles": "CCCOc1ccc(C(=O)NCC2(N(C)C)CCCCC2)cc1OC", "inhibition": "inactive: -6.3%"},
      {"smiles": "Cc1ccc(C(=O)NCC2(N(C)C)CCCCC2)o1", "inhibition": "inactive: 2.7%"},
      {"smiles": "COc1ccc(C(c2nnnn2C2CCCC2)N2CCC(n3c(=O)[nH]c4ccccc43)CC2)cc1", "note": "(stereo unspecified)", "inhibition": "inactive: -0.8%"}
    ]}
  ]
}
